Assay results from patent US11001609B2, “Cell permeable cyclic peptide scaffolds” (priority 2017, dated 2021).

Format: in vitro ADME
Conditions: not given

First: A, LA08, 1, P, LA08, F [Compound 330]
Second: A, LA08, 1, P, LA08, F [Compound 696]
The “Permeability Value” of the first is 2-fold higher: 13.47 ×10⁻⁶ cm/s for the first, 6.812 ×10⁻⁶ cm/s for the second.

“A, LA08, L***, P, LA08, F [Compound 368]” and “A, LA08, L***, P, LA08, F [Compound 592]” are within 1.5-fold of each other in “Permeability Value”: 12.76 ×10⁻⁶ cm/s for the first, 8.615 ×10⁻⁶ cm/s for the second.

A, LA08, L***, P, M1, F [Compound 213] and A, LA08, L***, P, M1, F [Compound 324] are within 1.5-fold of each other in “Permeability Value”: 16.38 ×10⁻⁶ cm/s for the first, 13.55 ×10⁻⁶ cm/s for the second.

First: A, LA08, LA08, p, L***, F [Compound 402]
Second: A, LA08, LA08, p, L***, F [Compound 911]
The “Permeability Value” of the first is 3.9-fold higher: 11.89 ×10⁻⁶ cm/s for the first, 3.064 ×10⁻⁶ cm/s for the second.

A, LA08, M1, P, LA08, F [Compound 397] and A, LA08, M1, P, LA08, F [Compound 602] are within 1.5-fold of each other in “Permeability Value”: 11.94 ×10⁻⁶ cm/s for the first, 8.379 ×10⁻⁶ cm/s for the second.

First: A, LA08, M1, p, L***, F [Compound 34]
Second: A, LA08, M1, p, L***, F [Compound 801]
The “Permeability Value” of the first is 5.1-fold higher: 25.56 ×10⁻⁶ cm/s for the first, 5 ×10⁻⁶ cm/s for the second.

First: A, ML***, LA08, p, LA08, F [Compound 274]
Second: A, ML***, LA08, p, LA08, F [Compound 574]
The “Permeability Value” of the first is 1.6-fold higher: 14.59 ×10⁻⁶ cm/s for the first, 8.949 ×10⁻⁶ cm/s for the second.

First: BHF, 1, ML***, p, LA08, F [Compound 732]
Second: BHF, L***, M1, P, LA08, F [Compound 846]
The “Permeability Value” of the first is 1.5-fold higher: 6.073 ×10⁻⁶ cm/s for the first, 4.027 ×10⁻⁶ cm/s for the second.

Compared with BHF, LA08, 1, P, M1, F [Compound 301], BHF, LA08, 1, P, M1, F [Compound 721] is 2.3-fold lower in “Permeability Value”: 14.01 ×10⁻⁶ cm/s for the first, 6.204 ×10⁻⁶ cm/s for the second.

First: BHF, LA08, LA08, p, M1, F [Compound 958]
Second: BHF, LA08, LA08, p, M1, F [Compound 1017]
The “Permeability Value” of the first is 2.1-fold higher: 2.281 ×10⁻⁶ cm/s for the first, 1.103 ×10⁻⁶ cm/s for the second.

Compared with BHF, LA08, M1, p, M1, F [Compound 406], BHF, LA08, M1, p, M1, F [Compound 726] is 1.9-fold lower in “Permeability Value”: 11.86 ×10⁻⁶ cm/s for the first, 6.152 ×10⁻⁶ cm/s for the second.

BHF, M1, BHF, P, 1, F [Compound 371] and BHF, M1, BHF, P, 1, F [Compound 519] are within 1.5-fold of each other in “Permeability Value”: 12.6 ×10⁻⁶ cm/s for the first, 10.09 ×10⁻⁶ cm/s for the second.

Compared with BHF, M1, BHF, P, 1, F [Compound 719], BHF, M1, BHF, p, M1, F [Compound 504] is 1.7-fold higher in “Permeability Value”: 6.245 ×10⁻⁶ cm/s for the first, 10.39 ×10⁻⁶ cm/s for the second.

First: BHF, M1, BHF, p, M1, F [Compound 628]
Second: BHF, M1, BHF, p, M1, F [Compound 992]
The “Permeability Value” of the first is 5.1-fold higher: 8.011 ×10⁻⁶ cm/s for the first, 1.572 ×10⁻⁶ cm/s for the second.

“BHF, ML***, LA08, P, LA08, F [Compound 940]” and “BHF, ML***, LA08, P, LA08, F [Compound 956]” are within 1.5-fold of each other in “Permeability Value”: 2.559 ×10⁻⁶ cm/s for the first, 2.318 ×10⁻⁶ cm/s for the second.

Going from “BHF, ML***, LA08, p, LA08, F [Compound 781]” to “BHF, ML***, LA08, p, LA08, F [Compound 993]”, the “Permeability Value” falls from 5.269 ×10⁻⁶ cm/s to 1.57 ×10⁻⁶ cm/s (3.4-fold).

Compared with “BHF, ML***, ML***, P, LA08, F [Compound 454]”, “BHF, ML***, ML***, P, LA08, F [Compound 986]” is 6.3-fold lower in “Permeability Value”: 11.13 ×10⁻⁶ cm/s for the first, 1.771 ×10⁻⁶ cm/s for the second.

LA02, 1, BHF, P, L***, F [Compound 276] and LA02, 1, BHF, P, L***, F [Compound 469] are within 1.5-fold of each other in “Permeability Value”: 14.54 ×10⁻⁶ cm/s for the first, 10.94 ×10⁻⁶ cm/s for the second.

LA02, 1, BHF, p, L***, F [Compound 661] and LA02, 1, BHF, p, L***, F [Compound 789] are within 1.5-fold of each other in “Permeability Value”: 7.429 ×10⁻⁶ cm/s for the first, 5.163 ×10⁻⁶ cm/s for the second.

LA02, 1, M1, P, M1, F [Compound 21] and LA02, 1, M1, P, M1, F [Compound 113] are within 1.5-fold of each other in “Permeability Value”: 26.83 ×10⁻⁶ cm/s for the first, 19.52 ×10⁻⁶ cm/s for the second.

LA02, 1, M1, P, M1, F [Compound 778] and LA02, 1, M1, p, M1, F [Compound 663] are within 1.5-fold of each other in “Permeability Value”: 5.292 ×10⁻⁶ cm/s for the first, 7.403 ×10⁻⁶ cm/s for the second.

First: LA02, 1, M1, p, M1, F [Compound 707]
Second: LA02, LA08, 1, p, L***, F [Compound 455]
The “Permeability Value” of the first is 1.7-fold lower: 6.603 ×10⁻⁶ cm/s for the first, 11.12 ×10⁻⁶ cm/s for the second.

“LA02, LA08, 1, p, L***, F [Compound 741]” and “LA02, LA08, L***, p, LA08, F [Compound 731]” are within 1.5-fold of each other in “Permeability Value”: 5.85 ×10⁻⁶ cm/s for the first, 6.081 ×10⁻⁶ cm/s for the second.

Going from “LA02, LA08, LA08, P, L***, F [Compound 676]” to “LA02, LA08, LA08, P, L***, F [Compound 842]”, the “Permeability Value” falls from 7.16 ×10⁻⁶ cm/s to 4.141 ×10⁻⁶ cm/s (1.7-fold).

“LA02, LA08, LA08, p, 1, F [Compound 637]” and “LA02, LA08, LA08, p, 1, F [Compound 662]” are within 1.5-fold of each other in “Permeability Value”: 7.837 ×10⁻⁶ cm/s for the first, 7.42 ×10⁻⁶ cm/s for the second.

LA02, LA08, M1, P, 1, F [Compound 339] and LA02, LA08, M1, P, 1, F [Compound 531] are within 1.5-fold of each other in “Permeability Value”: 13.28 ×10⁻⁶ cm/s for the first, 9.778 ×10⁻⁶ cm/s for the second.

In the case of LA02, M1, 1, P, LA08, F [Compound 749], the “Permeability Value” is reported as 5.732 ×10⁻⁶ cm/s.

Same assay, conditions: PAMPA Pe; 1% lecithin in n-dodecane, PBS with 5% DMSO, 25° C., 18 hours; corrected on 1NMe3 standard

Compared with A, LA08, ML***, P, 1, F [Compound 729], “A, LA08, ML***, P, LA08, F [Compound 392]” is 2-fold higher in “Permeability Value”: 6.103 ×10⁻⁶ cm/s for the first, 12.02 ×10⁻⁶ cm/s for the second.

“A, LA08, ML***, P, LA08, F [Compound 550]” and BHF, 1, LA08, p, M1, F [Compound 588] are within 1.5-fold of each other in “Permeability Value”: 9.45 ×10⁻⁶ cm/s for the first, 8.698 ×10⁻⁶ cm/s for the second.

Going from “BHF, L***, LA08, p, M1, F [Compound 772]” to BHF, LA08, 1, P, L***, F [Compound 427], the “Permeability Value” rises from 5.385 ×10⁻⁶ cm/s to 11.49 ×10⁻⁶ cm/s (2.1-fold).

Compared with “BHF, LA08, L***, P, L***, F [Compound 303]”, BHF, LA08, L***, p, 1, F [Compound 585] is 1.6-fold lower in “Permeability Value”: 13.96 ×10⁻⁶ cm/s for the first, 8.764 ×10⁻⁶ cm/s for the second.

Going from “BHF, LA08, L***, p, M1, F [Compound 790]” to “BHF, LA08, M1, P, L***, F [Compound 553]”, the “Permeability Value” rises from 5.157 ×10⁻⁶ cm/s to 9.359 ×10⁻⁶ cm/s (1.8-fold).

Compared with BHF, LA08, M1, p, 1, F [Compound 546], “BHF, LA08, ML***, P, L***, F [Compound 737]” is 1.6-fold lower in “Permeability Value”: 9.565 ×10⁻⁶ cm/s for the first, 6.029 ×10⁻⁶ cm/s for the second.

BHF, M1, BHF, P, L***, F [Compound 360] and “BHF, ML***, LA08, P, 1, F [Compound 492]” are within 1.5-fold of each other in “Permeability Value”: 12.96 ×10⁻⁶ cm/s for the first, 10.59 ×10⁻⁶ cm/s for the second.

Going from “BHF, ML***, LA08, P, 1, F [Compound 668]” to “LA02, 1, ML***, P, LA08, F [Compound 438]”, the “Permeability Value” rises from 7.293 ×10⁻⁶ cm/s to 11.32 ×10⁻⁶ cm/s (1.6-fold).

First: LA02, 1, ML***, P, M1, F [Compound 178]
Second: LA02, 1, ML***, p, ML***, F [Compound 535]
The “Permeability Value” of the first is 1.8-fold higher: 17.47 ×10⁻⁶ cm/s for the first, 9.74 ×10⁻⁶ cm/s for the second.

Going from LA02, L***, BHF, p, 1, F [Compound 727] to “LA02, L***, LA08, P, LA08, F [Compound 537]”, the “Permeability Value” rises from 6.128 ×10⁻⁶ cm/s to 9.721 ×10⁻⁶ cm/s (1.6-fold).

First: LA02, L***, M1, P, M1, F [Compound 217]
Second: LA02, L***, M1, p, LA08, F [Compound 745]
The “Permeability Value” of the first is 2.8-fold higher: 16.25 ×10⁻⁶ cm/s for the first, 5.796 ×10⁻⁶ cm/s for the second.

“LA02, L***, ML***, p, M1, F [Compound 472]” and “LA02, LA08, 1, P, LA08, F [Compound 660]” are within 1.5-fold of each other in “Permeability Value”: 10.86 ×10⁻⁶ cm/s for the first, 7.437 ×10⁻⁶ cm/s for the second.

LA02, LA08, 1, p, M1, F [Compound 541] and LA02, LA08, BHF, P, 1, F [Compound 618] are within 1.5-fold of each other in “Permeability Value”: 9.632 ×10⁻⁶ cm/s for the first, 8.092 ×10⁻⁶ cm/s for the second.

First: LA02, LA08, BHF, P, L***, F [Compound 710]
Second: LA02, LA08, L***, p, L***, F [Compound 479]
The “Permeability Value” of the first is 1.6-fold lower: 6.591 ×10⁻⁶ cm/s for the first, 10.76 ×10⁻⁶ cm/s for the second.

“LA02, LA08, ML***, P, 1, F [Compound 627]” and “LA02, LA08, ML***, P, M1, F [Compound 444]” are within 1.5-fold of each other in “Permeability Value”: 8.019 ×10⁻⁶ cm/s for the first, 11.22 ×10⁻⁶ cm/s for the second.

Same assay, conditions: PAMPA Pe; 1% lecithin in n-dodecane, PBS with 5% DMSO, 25° C., 18 hours; corrected to 1NMe3 standard

Going from BHF, 1, LA08, P, LA08, F [Compound 889] to BHF, 1, LA08, P, LA08, F [Compound 985], the “Permeability Value” falls from 3.337 ×10⁻⁶ cm/s to 1.8 ×10⁻⁶ cm/s (1.9-fold).

Going from “BHF, LA08, L***, P, LA08, F [Compound 984]” to “BHF, LA08, L***, p, ML***, F [Compound 1039]”, the “Permeability Value” falls from 1.801 ×10⁻⁶ cm/s to 0.7376 ×10⁻⁶ cm/s (2.4-fold).

First: BHF, LA08, LA08, p, L***, F [Compound 997]
Second: BHF, LA08, M1, P, LA08, F [Compound 908]
The “Permeability Value” of the first is 2.1-fold lower: 1.489 ×10⁻⁶ cm/s for the first, 3.097 ×10⁻⁶ cm/s for the second.

“BHF, M1, BHF, P, LA08, F [Compound 1033]” and “BHF, M1, BHF, P, ML***, F [Compound 1042]” are within 1.5-fold of each other in “Permeability Value”: 0.8606 ×10⁻⁶ cm/s for the first, 0.6705 ×10⁻⁶ cm/s for the second.

First: BHF, M1, LA08, P, LA08, F [Compound 1036]
Second: BHF, M1, M1, P, 1, F [Compound 839]
The “Permeability Value” of the first is 5.5-fold lower: 0.7632 ×10⁻⁶ cm/s for the first, 4.186 ×10⁻⁶ cm/s for the second.

Compared with BHF, M1, M1, P, 1, F [Compound 874], “BHF, ML***, M1, P, LA08, F [Compound 953]” is 1.5-fold lower in “Permeability Value”: 3.614 ×10⁻⁶ cm/s for the first, 2.335 ×10⁻⁶ cm/s for the second.

LA02, 1, BHF, P, LA08, F [Compound 868] and “LA02, L***, ML***, p, LA08, F [Compound 902]” are within 1.5-fold of each other in “Permeability Value”: 3.672 ×10⁻⁶ cm/s for the first, 3.187 ×10⁻⁶ cm/s for the second.
